# Laboratory results published in PubChem BioAssay AID869 (SRMLSC, 2007).
# Only a part is listed here, and it is no random draw. The source made the active and inactive calls.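 Rule for the calls: active = inhibition over a set limit, the all-compound mean plus 3 SD, in both replicate runs; inconclusive = over that limit in just one replicate run; inactive = at or under that limit in both runs.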
# Test: RAM pathway blockade in budding yeast – dse1pr::URA3 reporter, 5-FOA selection, pilot screen (AID 869);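 note: 0% = DMSO wells with no growth and 100% = 10 µM 1-NA-PP1 with full growth; RAM network block rescues cells from 5-FOA so hits raise OD615 growth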
# Conditions: S. cerevisiae dse1pr::URA3 5-FOA growth, OD615, 2 d; at 10 µM; active compounds read high; strain carries analog-sensitive mutant Cbk1 kinase
row,SMILES,inhibition
1,Fc1ccccc1NC1CCN(Cc2ccccc2)CC1,inactive: 1.87%
